Assay results from PubChem BioAssay (NCI).
Some results for these compounds are left out of this collection, so the calls shown say nothing about other tests.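 Following 48 hours of exposure in 96-well plates, responses at five concentrations were used to interpolate endpoints linearly. Here, GI50 denotes the concentration required for 50% inhibition of growth.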

Experiments:
Assay in all cases: inhibition of tumour cell growth, NCI panel, 48 h; in the data active means GI50 below about 0.43 µM; inactive means the rest
[1] = tested on: UO-31 renal
[2] = tested on: HCT-116 colon
[3] = tested on: SK-OV-3 ovarian
[4] = tested on: SW-620 colon
[5] = tested on: RXF 393 renal
[6] = tested on: MDA-N
[7] = tested on: HOP-62 NSCLC
[8] = tested on: UACC-62 melanoma
[9] = tested on: A549 NSCLC
[10] = tested on: NCI/ADR-RES ovarian
[11] = tested on: OVCAR-5 ovarian
[12] = tested on: SF-539 CNS
[13] = tested on: 786-0 renal
[14] = tested on: K-562 leukemia
[15] = tested on: SK-MEL-28 melanoma
[16] = tested on: M14 melanoma
[17] = tested on: MCF7 breast
[18] = tested on: OVCAR-8 ovarian
[19] = tested on: TK-10 renal
[20] = tested on: HL-60(TB) leukemia
[21] = tested on: HCT-15 colon
[22] = tested on: SK-MEL-5 melanoma
[23] = tested on: COLO 205 colon
[24] = tested on: NCI-H522 lung
[25] = tested on: SNB-75 CNS
[26] = tested on: SR leukemia
[27] = tested on: EKVX NSCLC
[28] = tested on: CCRF-CEM leukemia
[29] = tested on: SF-268 CNS
[30] = tested on: SF-295 CNS
[31] = tested on: OVCAR-3 ovarian
[32] = tested on: PC-3 prostate
[33] = tested on: MOLT-4 leukemia
[34] = tested on: U251 CNS
[35] = tested on: SNB-19 CNS
[36] = tested on: KM12 colon
[37] = tested on: ACHN renal
[38] = tested on: SN12C renal
[39] = tested on: RPMI-8226 leukemia
[40] = tested on: IGROV1 ovarian
[41] = tested on: NCI-H23 lung
[42] = tested on: T-47D breast
[43] = tested on: MALME-3M melanoma
[44] = tested on: HCC-2998 colon
[45] = tested on: CAKI-1 renal
[46] = tested on: NCI-H226 lung
[47] = tested on: UACC-257 melanoma
[48] = tested on: LOX IMVI melanoma
[49] = tested on: MDA-MB-231 breast
[50] = tested on: HT29 colon
[51] = tested on: DU-145 prostate

Measured: GI50

CC(C)C(O)(C(=O)O/C=C1\CC2CCN1CC2)c1ccccc1 (stereo unspecified)
inactive: [1] 21 µM | [2] > 100 µM | [3] > 100 µM | [4] > 100 µM | [5] > 100 µM | [6] > 100 µM | [7] > 100 µM | [8] > 100 µM | [9] > 100 µM | [10] 18.7 µM | [11] > 100 µM | [12] > 100 µM | [13] > 100 µM | [14] 54.8 µM | [15] > 100 µM | [16] > 100 µM | [17] > 100 µM | [18] > 100 µM | [19] > 100 µM | [20] 52.9 µM | [21] > 100 µM | [22] > 100 µM | [23] > 100 µM | [24] > 100 µM | [25] > 100 µM | [26] 56.3 µM | [27] 66.2 µM | [28] 37.6 µM | [29] > 100 µM | [30] > 100 µM | [31] > 100 µM | [32] > 100 µM | [33] 51.9 µM | [34] > 100 µM | [35] > 100 µM | [36] > 100 µM | [37] > 100 µM | [38] > 100 µM | [39] 46.3 µM | [40] > 100 µM | [41] > 100 µM | [42] 99.4 µM | [43] > 100 µM | [44] 35 µM | [45] > 100 µM | [46] > 100 µM | [47] > 100 µM | [48] > 100 µM | [49] > 100 µM | [50] > 100 µM | [51] > 100 µM

C=C(C)C#CC(O)(C(=O)OC1CCN(C)CC1)c1cccs1 (stereo unspecified)
inactive: [1] 89.5 µM | [2] > 100 µM | [3] > 100 µM | [4] > 100 µM | [5] > 100 µM | [6] > 100 µM | [7] > 100 µM | [8] > 100 µM | [9] > 100 µM | [11] > 100 µM | [12] > 100 µM | [13] > 100 µM | [14] > 100 µM | [15] > 100 µM | [16] > 100 µM | [17] > 100 µM | [18] > 100 µM | [19] > 100 µM | [20] > 100 µM | [21] > 100 µM | [22] > 100 µM | [23] > 100 µM | [24] > 100 µM | [25] > 100 µM | [26] > 100 µM | [27] > 100 µM | [28] > 100 µM | [29] > 100 µM | [30] > 100 µM | [31] > 100 µM | [32] > 100 µM | [33] > 100 µM | [34] > 100 µM | [35] > 100 µM | [36] > 100 µM | [37] > 100 µM | [38] > 100 µM | [39] > 100 µM | [40] > 100 µM | [41] > 100 µM | [42] > 100 µM | [43] > 100 µM | [44] > 100 µM | [45] > 100 µM | [46] > 100 µM | [47] > 100 µM | [48] > 100 µM | [49] > 100 µM | [50] > 100 µM | [51] > 100 µM
